Test: Enhancement of the effect of the QS21/MPL adjuvant by other cytokines

IL-2: cytokine
enhancement of the effect of the QS21/MPL adjuvant: unable to enhance
